US20240226357A1, “Sanitization Method for Affinity Chromatography Matrices” (priority 2015, published 2024)

Test system: Fab
Conditions: Capto L, compared to PBS control

Row | Structure (SMILES) | Relative remaining SBC (%) (4 h incubation in SIP solution, 10' incubation with Fab sample) | Relative remaining SBC (%) (24 h incubation in SIP solution, 90' incubation with Fab sample, listed as 100 mM Peracetic acid)
1 | CC(=O)OO [500 mM Peracetic acid, Peracetic acid] | 106 | 
2 | CC(=O)OO [0.1M Peracetic acid, peracetic acid] |  | 105

Like-named read-outs stand apart in the source and are kept apart here.
